One data set can be described thus: in vivo. To be noted: male, Wistar, rat, iv, 0.5 mg/kg.
In another data set the target is T1, hP2Y14R (Homo sapiens, UniProt Q15391).
T1 sequence (Q15391 1-338): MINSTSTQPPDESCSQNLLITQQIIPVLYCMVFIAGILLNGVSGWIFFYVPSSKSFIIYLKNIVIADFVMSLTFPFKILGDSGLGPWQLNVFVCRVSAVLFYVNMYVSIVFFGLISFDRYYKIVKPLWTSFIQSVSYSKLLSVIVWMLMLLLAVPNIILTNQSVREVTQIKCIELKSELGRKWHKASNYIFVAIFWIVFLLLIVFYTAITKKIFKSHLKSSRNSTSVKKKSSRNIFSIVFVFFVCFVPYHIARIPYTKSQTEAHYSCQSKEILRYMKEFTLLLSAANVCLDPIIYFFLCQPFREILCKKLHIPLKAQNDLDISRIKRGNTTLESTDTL

The text below walks through data of paper PMC8317135 (Journal of medicinal chemistry, 2021).

As for `O=C(O)c1cc(-c2ccc(-c3cc(CO)on3)cc2)c2ccc(-c3ccc(C(F)(F)F)cc3)cc2c1` [Compound 32, 4-(4-(5-(Hydroxymethyl)isoxazol-3-yl)phenyl)-7-(4-(trifluoromethyl)phenyl)-2-naphthoic Acid], the Tmax at 24 h in “in vivo” is 4.98 min. In addition, at hP2Y14R, the “fold increase in affinity compared to the triazole series” value was found to be 20 fold.
